# According to US20160113905A1, “Polymer composition and polymer material” (INDUSTRIAL TECHNOLOGY RESEARCH INSTITUTE, priority 2012, published 2016):
# Amino acid sequences for entries named in this document (tags omitted). Residues count along the entry.
# UniProt P14780, 107-707 limits assumed, species assumed: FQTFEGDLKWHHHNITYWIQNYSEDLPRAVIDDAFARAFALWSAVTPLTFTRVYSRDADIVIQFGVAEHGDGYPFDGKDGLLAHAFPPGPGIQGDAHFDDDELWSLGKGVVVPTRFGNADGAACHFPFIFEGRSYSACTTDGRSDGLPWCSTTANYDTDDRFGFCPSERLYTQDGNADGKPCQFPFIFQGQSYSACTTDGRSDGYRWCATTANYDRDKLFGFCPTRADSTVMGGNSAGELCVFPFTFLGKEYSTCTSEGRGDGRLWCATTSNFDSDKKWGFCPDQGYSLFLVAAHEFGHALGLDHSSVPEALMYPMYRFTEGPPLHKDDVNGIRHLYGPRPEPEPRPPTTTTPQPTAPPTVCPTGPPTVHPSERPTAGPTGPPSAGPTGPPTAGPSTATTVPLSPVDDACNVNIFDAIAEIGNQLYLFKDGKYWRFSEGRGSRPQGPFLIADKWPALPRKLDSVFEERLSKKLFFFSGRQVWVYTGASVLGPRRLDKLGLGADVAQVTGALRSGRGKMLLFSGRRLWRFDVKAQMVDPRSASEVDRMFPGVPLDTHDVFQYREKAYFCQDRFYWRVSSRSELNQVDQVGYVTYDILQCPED
# Target: matrix metalloproteinase-9 (Homo sapiens, UniProt P14780)
# Test: Inhibition test of matrix metalloproteinase-9 activity (fluorogenic substrate, activated pro-MMP-9)
# Conditions: Table 5, BocHis sample, concentration not given
compound,measurement,value
"CC(C)(C)OC(=O)N[C@@H](Cc1c[nH]cn1)C(=O)O [BocHis, Boc-histidine]",Matrix metalloproteinase-9 inhibitory rate (%),81.05%
